How the values were obtained:
[1] = target: recombinant human Serotonin (5-HT) transporter (Homo sapiens, UniProt P31645); test: cell-based
5-HT transporter = target: T1, 5-HT transporter (Homo sapiens, UniProt P31645); test: Radioligand binding assay, 5-HT transporter ([3H]paroxetine displacement); conditions: human recombinant; [3H]paroxetine 0.1 nM; read-out: Ki, Serotonin (5-HT) transporter
T1 construct: expressed in transfected cells

Sequences of proteins named here, by UniProt entry; tags and fusion partners are left off. A change or cut given only in a name is not applied to a line headed by its entry. Residues count along the entry.
UniProt P31645, whole entry: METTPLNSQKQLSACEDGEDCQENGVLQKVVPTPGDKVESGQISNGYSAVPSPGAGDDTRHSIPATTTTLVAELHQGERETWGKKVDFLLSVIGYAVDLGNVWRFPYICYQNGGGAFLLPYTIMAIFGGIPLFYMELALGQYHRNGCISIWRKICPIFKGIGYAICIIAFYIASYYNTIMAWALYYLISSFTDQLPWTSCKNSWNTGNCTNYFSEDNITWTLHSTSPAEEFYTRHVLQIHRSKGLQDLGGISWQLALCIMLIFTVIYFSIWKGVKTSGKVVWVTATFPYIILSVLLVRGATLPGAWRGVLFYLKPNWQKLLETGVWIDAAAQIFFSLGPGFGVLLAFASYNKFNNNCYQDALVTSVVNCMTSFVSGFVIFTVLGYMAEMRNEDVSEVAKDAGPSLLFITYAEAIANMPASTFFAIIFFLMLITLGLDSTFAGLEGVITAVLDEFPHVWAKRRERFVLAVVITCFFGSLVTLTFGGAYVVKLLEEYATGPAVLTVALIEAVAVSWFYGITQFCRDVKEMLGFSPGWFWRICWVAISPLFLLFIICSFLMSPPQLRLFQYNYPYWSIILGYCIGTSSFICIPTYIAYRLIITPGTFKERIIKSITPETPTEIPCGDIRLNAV
UniProt P11229: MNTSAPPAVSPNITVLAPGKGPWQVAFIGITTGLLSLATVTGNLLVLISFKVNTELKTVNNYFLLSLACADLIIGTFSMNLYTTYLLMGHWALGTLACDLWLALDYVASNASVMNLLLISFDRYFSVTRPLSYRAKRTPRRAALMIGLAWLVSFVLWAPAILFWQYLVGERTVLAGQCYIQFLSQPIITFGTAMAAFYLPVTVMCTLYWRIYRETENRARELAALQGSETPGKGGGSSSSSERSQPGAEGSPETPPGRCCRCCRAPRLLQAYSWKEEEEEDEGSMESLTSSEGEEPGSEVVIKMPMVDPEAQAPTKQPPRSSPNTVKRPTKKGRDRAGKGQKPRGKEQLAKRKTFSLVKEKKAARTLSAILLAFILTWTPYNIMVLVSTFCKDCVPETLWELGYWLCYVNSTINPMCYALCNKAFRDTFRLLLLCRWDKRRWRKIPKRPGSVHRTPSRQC
UniProt P20309, whole entry: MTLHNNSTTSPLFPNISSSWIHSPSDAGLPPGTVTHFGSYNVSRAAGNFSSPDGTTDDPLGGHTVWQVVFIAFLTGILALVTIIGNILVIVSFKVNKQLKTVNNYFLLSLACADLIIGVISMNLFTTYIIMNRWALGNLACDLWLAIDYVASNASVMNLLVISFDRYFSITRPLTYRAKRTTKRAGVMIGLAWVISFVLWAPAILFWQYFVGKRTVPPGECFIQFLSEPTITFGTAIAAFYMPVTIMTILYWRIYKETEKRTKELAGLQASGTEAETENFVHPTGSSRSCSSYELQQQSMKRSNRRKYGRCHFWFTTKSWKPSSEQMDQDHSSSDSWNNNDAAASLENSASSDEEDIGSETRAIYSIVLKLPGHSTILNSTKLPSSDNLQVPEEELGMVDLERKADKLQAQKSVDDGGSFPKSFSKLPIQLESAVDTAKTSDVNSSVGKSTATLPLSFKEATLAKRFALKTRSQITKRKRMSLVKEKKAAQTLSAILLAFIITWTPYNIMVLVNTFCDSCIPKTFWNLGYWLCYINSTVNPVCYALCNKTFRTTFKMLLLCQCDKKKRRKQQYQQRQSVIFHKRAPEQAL
UniProt P31652, whole entry: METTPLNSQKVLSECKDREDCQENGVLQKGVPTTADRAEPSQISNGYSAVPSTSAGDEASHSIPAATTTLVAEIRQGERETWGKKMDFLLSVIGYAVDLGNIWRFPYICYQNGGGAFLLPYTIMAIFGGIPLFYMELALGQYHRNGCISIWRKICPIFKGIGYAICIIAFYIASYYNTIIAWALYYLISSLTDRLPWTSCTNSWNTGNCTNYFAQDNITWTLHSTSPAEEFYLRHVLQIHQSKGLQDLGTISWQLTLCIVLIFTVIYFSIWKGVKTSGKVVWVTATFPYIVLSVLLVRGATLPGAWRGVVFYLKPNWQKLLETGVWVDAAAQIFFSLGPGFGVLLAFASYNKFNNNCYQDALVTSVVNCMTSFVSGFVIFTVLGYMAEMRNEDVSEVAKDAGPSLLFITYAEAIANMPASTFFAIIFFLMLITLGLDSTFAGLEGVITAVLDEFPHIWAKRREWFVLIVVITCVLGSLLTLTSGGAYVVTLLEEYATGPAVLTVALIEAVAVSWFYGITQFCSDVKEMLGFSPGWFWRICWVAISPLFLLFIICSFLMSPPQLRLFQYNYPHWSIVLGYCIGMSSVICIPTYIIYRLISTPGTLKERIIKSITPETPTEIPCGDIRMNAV
UniProt Q63380, 1-617: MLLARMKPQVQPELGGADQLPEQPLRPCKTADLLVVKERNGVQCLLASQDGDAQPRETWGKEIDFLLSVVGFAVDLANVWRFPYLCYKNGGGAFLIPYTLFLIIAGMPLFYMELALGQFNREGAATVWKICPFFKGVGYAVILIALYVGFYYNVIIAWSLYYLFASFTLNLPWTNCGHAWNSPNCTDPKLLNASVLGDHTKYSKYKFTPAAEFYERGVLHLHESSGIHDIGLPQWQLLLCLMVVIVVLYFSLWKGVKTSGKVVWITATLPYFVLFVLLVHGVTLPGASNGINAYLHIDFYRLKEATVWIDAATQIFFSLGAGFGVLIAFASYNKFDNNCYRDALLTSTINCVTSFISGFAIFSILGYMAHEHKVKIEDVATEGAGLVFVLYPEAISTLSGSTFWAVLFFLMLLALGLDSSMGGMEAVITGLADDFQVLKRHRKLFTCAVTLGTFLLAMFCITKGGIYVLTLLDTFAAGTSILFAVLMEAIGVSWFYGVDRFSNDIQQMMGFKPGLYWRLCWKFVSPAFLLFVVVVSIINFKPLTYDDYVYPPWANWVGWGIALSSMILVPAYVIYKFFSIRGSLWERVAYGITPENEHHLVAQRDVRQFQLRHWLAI
UniProt P23977, whole entry: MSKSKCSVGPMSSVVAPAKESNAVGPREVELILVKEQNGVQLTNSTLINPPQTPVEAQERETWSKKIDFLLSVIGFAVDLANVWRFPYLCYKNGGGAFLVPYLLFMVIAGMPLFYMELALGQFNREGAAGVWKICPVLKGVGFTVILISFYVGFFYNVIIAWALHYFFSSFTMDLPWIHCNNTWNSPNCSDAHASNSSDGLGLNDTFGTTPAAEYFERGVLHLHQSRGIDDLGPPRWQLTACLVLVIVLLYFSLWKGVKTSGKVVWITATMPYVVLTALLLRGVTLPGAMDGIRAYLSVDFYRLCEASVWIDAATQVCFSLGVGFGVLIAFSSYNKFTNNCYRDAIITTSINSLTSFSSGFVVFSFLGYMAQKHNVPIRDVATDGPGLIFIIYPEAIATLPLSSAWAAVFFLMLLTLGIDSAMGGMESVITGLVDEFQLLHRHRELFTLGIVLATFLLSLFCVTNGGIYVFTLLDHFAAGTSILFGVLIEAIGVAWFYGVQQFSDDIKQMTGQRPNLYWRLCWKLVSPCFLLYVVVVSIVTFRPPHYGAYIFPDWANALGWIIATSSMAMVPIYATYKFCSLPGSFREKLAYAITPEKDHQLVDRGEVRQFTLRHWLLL

M1 = M1 (Homo sapiens, UniProt P11229); test: In vitro radioligand binding assay, M1
muscarinic (M3) receptor = muscarinic (M3) receptor (Homo sapiens, UniProt P20309); test: biochemical
Serotonin (5-HT) uptake = Serotonin (5-HT) uptake (Rattus norvegicus, UniProt P31652); test: biochemical
[2] = target: T2, Norepinephrine (NE) uptake (Rattus norvegicus, UniProt Q63380); test: Functional uptake of radiolabeled NE into synaptosomes from rat hypothalamus; type: biochemical
T2 construct: from tissue; host or cells: synaptosomes from rat hypothalamus

Dopamine (DA) uptake = Dopamine (DA) uptake (Rattus norvegicus, UniProt P23977); test: biochemical

Structure (SMILES) | IC50 [1] | Ki (5-HT transporter) | Ki (M1) | Ki (muscarinic (M3) receptor) | IC50 (Serotonin (5-HT) uptake) | IC50 [2] | IC50 (Dopamine (DA) uptake)
N[C@@H]1CC[C@@H](c2ccc(Cl)c(Cl)c2)c2ccccc21 [Compound P, (1R,4S)-trans 4-(3,4-dichlorophenyl)-1,2,3,4-tetrahydro-1-napthalenamine] | 18.4 nM | 23 nM | 1000 nM | 170 nM | 7.7 nM | – | –
N[C@H]1CC[C@H](c2ccc(Cl)c(Cl)c2)c2ccccc21 [Compound Q, (1S,4R)-trans 4-(3,4-dichlorophenyl)-1,2,3,4-tetrahydro-1-napthalenamine] | 47.8 nM | – | – | – | 88 nM | – | –
COc1ccc(C(CN(C)C)C2(O)CCCCC2)cc1 (stereo not shown) [Venlafaxine] | – | – | – | – | – | 360 nM | 5 µM
N[C@@H]1CC[C@@H](c2ccc(Cl)c(Cl)c2)c2ccccc21 (racemic) [1:1 mixture of Compounds P & Q, trans-4-(3,4-dichlorophenyl)-1,2,3,4-tetrahydro-1-napthalenamine] | – | – | – | – | 4.1 nM | – | –

Reference: patent US20070282007A1, “TREATMENT OF PAIN DISORDERS WITH trans 4-(3,4-DICHLOROPHENYL)-1,2,3,4-TETRAHYDRO-1-NAPHTHALENAMINE AND ITS FORMAMIDE” (SEPRACOR INC., priority 2006, published 2007)
